The values below come from patent US9980949B2, “SNS-595 and methods of using the same” (Sunesis Pharmaceuticals, Inc., priority 2004, dated 2018).

This experiment concerns HCT116 cells. Nature of the experiment: Combination studies with SNS-595, MTT assay, median-effect Combination Index. The following applies: combination with SNS-595 at constant ratio, 72 hours, <0.90 synergistic, 0.90-1.10 additive, >1.10 antagonistic. Type of experiment: cell-based. As to the method:
The final DMSO concentration was 1% in the assay plate. The treated cells were incubated for 72 hours at 37° C., 5% CO2 before adding 20 μl/well 3-[4,5-dimethylthiazol-2-yl]-2,5-diphenyltetrazolium bromide (MTT) for 1 hour followed by 100 μl/well N,N-dimethyl formamide/SDS lysis buffer for at least 16 hours. The plates were read for absorbance at a wavelength of 595 nm. The data was worked up using the median-effect method that quantifies the interaction using a Combination Index (calculated using the software for dose effect analysis, Calcusyn V2(Biosoft). A combination is said to be additive if it yields a Combination Index of 0.90-1.10. A combination is said to be synergistic if it yields a Combination Index less than 0.90 and a combination is said to be antagonistic if it yields a Combination Index of more than 1.10. All Combination Index calculations were at a Fa value of 0.5, the point where 50% of the cells were dead. See Table 2.

As to `COc1cccc2c1C(=O)c1c(O)c3c(c(O)c1C2=O)C[C@@](O)(C(C)=O)C[C@@H]3O[C@H]1C[C@H](N)[C@H](O)[C@H](C)O1` [Daunomycin], the “Combination Index @ Fa = 0.5” value was 0.48.
